Test results published in patent EP2905286A1, “Novel diazabicyclohydrocarbon-Pt complexes and the use thereof as pharmaceuticals” (Studiengesellschaft Kohle mbH, priority 2014, dated 2015).

Test: Solubility observed during preparation
Type: physicochemical

solubility in DMF (DMF): even less so | solubility in water (water): dissolves only poorly
Substance: (Bispidin-9,9-diol)platinum(II)(oxalate) [compound 7]
